Test results as given in article PMC6026870, “Selective induction of cancer cell death by VDAC1‐based peptides and their potential use in cancer therapy” (Molecular Oncology, 2018).

What was measured:
DU‐145 = type: cell-based
Description: (§1) Leukemia cells, U‐937, MEC‐1 cells (4 × 10^5 or 8 × 10^5 cells/sample, respectively), as well as other leukemia or suspension cell lines, were incubated in 200 μL serum‐free medium with various concentrations of the peptide for 90 min at 23–25 °C, collected by centrifugation (500 g, 5 min), washed with PBS, and analyzed for cell death. Adherent cells (6 × 10^5 mL^−1 at 70–80% confluence) were incubated with the peptide of interest in 500 μL serum‐free recommended culture medium for 3–6 h at 37 °C and 5% CO2. The cells were then trypsinized, centrifuged (1500 g, 5 min), washed with PBS, and analyzed for the desired activity. Following peptide treatment, cells were subjected to cell death analysis. Propidium iodide (PI) staining was performed by addition of PI (6.25 μg·mL^−1) to the cells and immediate analysis by the EC800 Flow cytometer Analyzer–Eclipse or the FACS caliber (Becton‐Dickinson, San Jose, CA, USA) and BD […] PRO software (BD Biosciences, San Jose, CA, USA).
(§2) Forty‐one cancerous and five noncancerous cell lines were used in this study to examine the cell‐killing activity of the VDAC1‐based peptides Antp‐LP4, Tf‐LP4, Tf‐D‐LP4, R‐Tf‐D‐LP4, N‐Ter‐Antp, and others (Figs 1, 2, 3 and Tables 1, 2, 3). For each line, cells were incubated with different peptide concentrations, and cell death was determined by PI staining and FACS analysis (Figs 1, 2, 3). In addition, for each cell line, the concentration of the peptide inducing 50% cell death (EC50) was determined (Tables 1, 2, 3).

PC‐3 = type: cell-based; settings: PC‐3 (prostate cancer cells, Fig. 2), 6 h, PI/FACS
Description: as §1, §2

U‐87MG = type: cell-based; settings: 6 h
Description: as §1, §2

PANC1 = type: cell-based; settings: 6 h
Description: as §1, §2

[1] = Peptide stability on storage, read out as cell death activity; type: physicochemical; settings: 10 µM final concentration, PI and FACS; control cells 3%; cell line not printed (Fig. S3D,E)
Description: Purified HK-I (13 µg/ml) was pre-incubated with the indicated concentrations of Tf-D-LP4 (●) or R-Tf-D-LP4 (○) and assayed for HK activity as described in Materials and Methods. Change in absorbance at 340 nm (NADH production) was spectrophotometrically measured following addition of 1 mM ATP, and 0.05 unit/ml glucose-6-phosphate dehydrogenase. C. Tf-D-LP4 and R-Tf-D-LP4 solubility. The peptides were dissolved to a final concentration of 5 mM in 5% DMSO and diluted to 1.1 mM in HBSS. Peptide absorbance in the supernatant was measured at 280 nm following centrifugation at 12,000g before and after 75 min incubation at 24 °C. D, E. Tf-D-LP4 and R-Tf-D-LP4 (0.5 mM in 5% DMSO) were incubated at -20 °C (○), 4 °C (●) or 24 °C (▲) and at the indicated time, aliquots (10 µM, final concentration) were assayed for cell death as described in Materials and Methods. Cell death was analyzed using PI and FACS analysis. In control cells, cell death was 3%, while peptide treatment led to levels of cell death over 90%.

[2] = biological target: T1, Human hexokinase II (HK‐II), recombinant (human, UniProt P52789 1-917, fluorescently labeled using a NanoTemper BLUE protein‐labeling kit (in the MST)); assay: MST
T1 chain: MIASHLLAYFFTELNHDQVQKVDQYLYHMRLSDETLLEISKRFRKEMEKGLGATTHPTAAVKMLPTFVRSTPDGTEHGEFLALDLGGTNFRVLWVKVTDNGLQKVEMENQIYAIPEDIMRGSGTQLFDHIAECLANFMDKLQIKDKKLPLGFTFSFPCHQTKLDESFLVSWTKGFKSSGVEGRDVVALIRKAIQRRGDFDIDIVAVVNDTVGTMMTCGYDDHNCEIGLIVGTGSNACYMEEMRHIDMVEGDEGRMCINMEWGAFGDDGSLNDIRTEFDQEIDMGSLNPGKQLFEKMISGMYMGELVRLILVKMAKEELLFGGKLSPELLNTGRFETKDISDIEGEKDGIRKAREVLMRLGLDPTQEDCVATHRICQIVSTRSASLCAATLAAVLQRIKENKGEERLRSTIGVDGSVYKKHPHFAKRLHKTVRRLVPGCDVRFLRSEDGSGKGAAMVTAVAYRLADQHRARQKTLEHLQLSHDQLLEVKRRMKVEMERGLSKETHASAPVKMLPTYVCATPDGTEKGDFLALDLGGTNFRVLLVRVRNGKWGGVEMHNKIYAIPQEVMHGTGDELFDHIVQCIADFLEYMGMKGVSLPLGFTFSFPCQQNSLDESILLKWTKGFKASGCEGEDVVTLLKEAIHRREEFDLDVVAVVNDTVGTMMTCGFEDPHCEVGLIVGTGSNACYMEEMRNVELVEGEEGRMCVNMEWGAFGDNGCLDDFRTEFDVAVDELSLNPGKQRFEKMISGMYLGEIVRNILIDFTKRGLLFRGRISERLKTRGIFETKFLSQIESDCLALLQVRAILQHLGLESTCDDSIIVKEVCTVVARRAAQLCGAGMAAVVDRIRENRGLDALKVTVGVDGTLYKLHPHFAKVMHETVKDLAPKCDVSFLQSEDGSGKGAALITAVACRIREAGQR

[3] = biological target: T2, Human hexokinase I (HK‐I), recombinant (human, UniProt P19367 1-917, fluorescently labeled using a NanoTemper BLUE protein‐labeling kit (in the MST)); assay: MST
T2 chain: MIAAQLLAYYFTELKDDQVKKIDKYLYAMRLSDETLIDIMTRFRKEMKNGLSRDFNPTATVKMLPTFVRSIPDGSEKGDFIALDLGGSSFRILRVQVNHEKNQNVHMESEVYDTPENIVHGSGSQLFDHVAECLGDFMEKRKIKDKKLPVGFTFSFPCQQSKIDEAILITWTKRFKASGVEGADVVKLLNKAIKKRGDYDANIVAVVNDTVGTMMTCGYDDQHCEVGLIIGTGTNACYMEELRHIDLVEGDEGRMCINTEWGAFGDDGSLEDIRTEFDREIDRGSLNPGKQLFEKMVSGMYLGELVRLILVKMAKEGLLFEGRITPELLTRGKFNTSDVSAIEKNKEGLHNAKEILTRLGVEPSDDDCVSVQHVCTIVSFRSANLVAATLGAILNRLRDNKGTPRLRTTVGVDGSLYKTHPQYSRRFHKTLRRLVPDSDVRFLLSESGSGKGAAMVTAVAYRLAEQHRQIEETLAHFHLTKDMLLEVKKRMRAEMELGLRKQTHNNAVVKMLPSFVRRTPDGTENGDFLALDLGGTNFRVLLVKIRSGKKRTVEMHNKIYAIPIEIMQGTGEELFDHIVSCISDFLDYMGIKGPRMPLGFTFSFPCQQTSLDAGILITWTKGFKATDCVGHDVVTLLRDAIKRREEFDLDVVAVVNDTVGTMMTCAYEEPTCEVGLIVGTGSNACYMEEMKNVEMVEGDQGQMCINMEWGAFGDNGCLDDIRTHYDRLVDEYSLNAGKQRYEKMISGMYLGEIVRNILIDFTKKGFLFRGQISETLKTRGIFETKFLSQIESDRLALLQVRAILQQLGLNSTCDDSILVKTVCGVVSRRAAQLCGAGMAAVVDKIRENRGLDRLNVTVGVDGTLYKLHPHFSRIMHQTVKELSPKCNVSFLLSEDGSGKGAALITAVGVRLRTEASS

CC[C@@H](C)[C@@H](NC(=O)[C@@H](CCCCN)NC(=O)[C@H](NC(=O)[C@@H](CCC(N)=O)NC(=O)[C@H](N)CCCNC(=N)N)[C@H](C)CC)C(=O)N[C@H](Cc1c[nH]c2ccccc12)C(=O)N[C@H](Cc1ccccc1)C(=O)N[C@H](CCC(N)=O)C(=O)N[C@H](CC(N)=O)C(=O)N[C@H](CCCNC(=N)N)C(=O)N[C@H](CCCNC(=N)N)C(=O)N[C@H](CCSC)C(=O)N[C@H](CCCCN)C(=O)N[C@H](Cc1c[nH]c2ccccc12)C(=O)N[C@H](CCCCN)C(=O)N[C@H](CCCCN)C(=O)N[C@H](CO)C(=O)N[C@H](Cc1c[nH]c2ccccc12)C(=O)N[C@@H](C(=O)N[C@H](Cc1c[nH]c2ccccc12)C(=O)N[C@H](CCC(=O)O)C(=O)N[C@H](CCCCN)C(=O)N[C@H](CCCCN)C(=O)N[C@H](CC(C)C)C(=O)N[C@H](CCC(=O)O)C(=O)N[C@@H](C(=O)N[C@H](C)C(=O)N[C@@H](C(=O)N[C@H](CC(N)=O)C(=O)N[C@H](CC(C)C)C(=O)N[C@H](C)C(=O)N[C@H](Cc1c[nH]c2ccccc12)C(=O)N[C@@H](C(=O)N[C@H](C)C(=O)NCC(=O)N[C@H](CC(N)=O)C(=O)N[C@H](CO)C(=O)N[C@H](CC(N)=O)C(=O)N[C@H](CCCCN)C(=O)N[C@H](Cc1c[nH]c2ccccc12)C(=O)N[C@@H](C(=O)N[C@H](Cc1c[nH]c2ccccc12)C(=O)N[C@H](CCCCN)C(=O)O)[C@H](C)O)[C@H](C)O)C(C)C)[C@H](C)O)[C@H](C)O [D‐Antp‐LP4]
EC50 in killing prostate cancer cells (DU‐145; DU‐145 (prostate cancer cells, Fig. 2), 6 h, PI/FACS): submicromolar range
fold more effective in inducing cell death than the same peptide composed of L‐amino acids (DU‐145; DU‐145, 6 h, PI/FACS (Fig. 2C vs D)): about fourfold
EC50 in killing prostate cancer cells (PC‐3): submicromolar range
EC50 (U‐87MG): 6.5 µM

CC[C@H](C)[C@H](NC(=O)[C@H](C)NC(=O)[C@@H](N)Cc1c[nH]cn1)C(=O)N[C@@H](Cc1ccc(O)cc1)C(=O)N1CCC[C@H]1C(=O)N[C@@H](CCCNC(=N)N)C(=O)N[C@@H](Cc1c[nH]cn1)C(=O)N[C@H](CO)C(=O)N[C@H](Cc1c[nH]c2ccccc12)C(=O)N[C@@H](C(=O)N[C@H](Cc1c[nH]c2ccccc12)C(=O)N[C@H](CCC(=O)O)C(=O)N[C@H](CCCCN)C(=O)N[C@H](CCCCN)C(=O)N[C@H](CC(C)C)C(=O)N[C@H](CCC(=O)O)C(=O)N[C@@H](C(=O)N[C@H](C)C(=O)N[C@@H](C(=O)N[C@H](CC(N)=O)C(=O)N[C@H](CC(C)C)C(=O)N[C@H](C)C(=O)N[C@H](Cc1c[nH]c2ccccc12)C(=O)N[C@@H](C(=O)N[C@H](C)C(=O)NCC(=O)N[C@H](CC(N)=O)C(=O)N[C@H](CO)C(=O)N[C@H](CC(N)=O)C(=O)N[C@H](CCCCN)C(=O)N[C@H](Cc1c[nH]c2ccccc12)C(=O)N[C@@H](C(=O)N[C@H](Cc1c[nH]c2ccccc12)C(=O)N[C@H](CCCCN)C(=O)O)[C@H](C)O)[C@H](C)O)C(C)C)[C@H](C)O)[C@H](C)O [Tf‐D‐LP4]
EC50 (PANC1): 2.7 ± 0.9 µM
cell death on peptide treatment [1]: over 90%

HAIYPRHSWTWEKKLETAVNLAWTAGNSNKWTWK (only the amino acids of the VDAC1‐derived sequence are in D‐configuration) [Tf‐D‐LP4]
Kd [2]: 9.5 µM
Kd [3]: 10.5 µM
